# Where two headings read alike, the source gives them in different places.
# Test system: Sulfur Mustard (SM) inhalation induced lung injury
# Details: for survival / mean Pulmonary Artery Pressures (mPAP) / weight gain: at 25 days; for lung histology (airway epithelial layer, wall thickening, inflammation, luminal exudate): 25 days after SM exposure
smiles,measurement,setting,value
C=C1CC[C@H](O)C/C1=C/C=C1\CCC[C@]2(C)[C@@H]([C@H](C)CCCC(C)C)CC[C@@H]12,"weight gain, course over time",1-dose regimen,"initial improvement in weight gain over the first 8 days, similar to 4-dose and 3-dose treatment groups, but benefit was lost between 9-25 days"
same,survival,"1-dose regimen (4 hrs post exposure), 20,000 IU/kg PO",63%
same,"lung histology (airway epithelial layer, wall thickening, inflammation, luminal exudate)",1-dose regimen,"no improvement in airway wall over control, with a complete absence of airway epithelium, severe wall thickening and inflammation, as well as severe inflammatory exudate impaction of airways"
same,mean Pulmonary Artery Pressures (mPAP),1-dose regimen,20.0 mmHg
same,airways resistance,"1-dose regimen, vs SM controls",no improvement
same,compliance,"1-dose regimen, vs SM controls",no improvement
same,"weight gain, course over time",3-dose regimen,"initial improvement in weight gain over the first 12 days was seen, similar to 4-dose treatment group, but then this benefit was lost between 13-25 days"
same,survival,"3-dose regimen (4 hrs, then 3, 7 days post exposure), 20,000 IU/kg PO",85%
same,survival,"3-dose regimen (4 hrs, then 3, 7 days post exposure), 20,000 IU/kg PO, listed as Vit D3",83%
same,"lung histology (airway epithelial layer, wall thickening, inflammation, luminal exudate)",3-dose regimen,"some discontinuous airway epithelial layer presence in both proximal and distal airways, with moderate inflammation and moderate exudate present within the lumen"
same,mean Pulmonary Artery Pressures (mPAP),3-dose regimen,20.9 mmHg
same,weight gain,3-dose regimen,2%
same,total airways resistance,"3-dose regimen, vs SM controls",trending towards a decrease
same,total compliance,"3-dose regimen, vs SM controls",unchanged from SM controls
same,survival,"4-dose regimen (4 hrs, then 7, 14, 21 days post exposure), 20,000 IU/kg PO",100%
same,"lung histology (airway epithelial layer, wall thickening, inflammation, luminal exudate)","4-dose regimen, Masson Trichrome","improvement in airway epithelial layer presence, with continuous layer seen in both proximal and distal airways, with minimal inflammation and exudate presence within the lumen"
same,mean Pulmonary Artery Pressures (mPAP),4-dose regimen,18.3 mmHg
same,weight gain,4-dose regimen,21%
same,total airways resistance,"4-dose regimen, vs SM controls",trending towards a decrease
same,total compliance,"4-dose regimen, vs SM controls",unchanged from SM controls
same,"lung histology (airway epithelial barrier, wall thickness, luminal inflammatory exudates)",repeated oral dosing regimen after lung injury,"improved the airway epithelial barrier and wall thickness, and greatly decreased luminal inflammatory exudates"
